{"source": "patent US9394233B2", "about": "“ROS-activated compounds as selective anti-cancer therapeutics” (University of Cincinnati, priority 2012, dated 2016)", "system": "HeLa cells", "test": "HeLa cell viability, MTT assay", "type": "cell-based", "details": "read-out: IC50 against HeLa Cells, 50% reduction in percent of viable HeLa cells", "description": "Table 1 sets forth ROS-Activated compounds of the present invention, together with their IC50 values corresponding to a 50% reduction in the percent of viable HeLa cells in vitro as measured via MTT assay.\nAll synthesized compounds were purified to greater than 98% purity prior to cell testing. HeLa cell viability assays were performed using an MTT assay.\nThe general structure of the ROS-activated compounds disclosed herein was probed to determine how positions in the structure alter potency in aqueous media. Compounds were screened against HeLa cells to determine IC50 values. Cell viability was monitored by an MTT dye that forms a purple formazan product in viable cells that are undergoing metabolism. […] Errors reported are between two separate experiments; independent curve-fitting had r greater than 0.95)."}
{"substance": "N-methyl-N-(3-phenoxypropyl)aniline", "values": [{"measurement": "IC50", "result": "> 125", "unit": "µM"}]}
